Test results as given in patent publication US7109310B2.
≈ marks a conversion by molar mass, not a printed value. This is a selection: effects in other tests are not listed, and their absence says nothing.

Key:
[1] = tested on: IgG fraction of the antiserum raised to Immunogen A (Hapten A-BSA); assay: Competitive ELISA microtiter plate assay, antiserum to immunogen A with conjugate G (hapten G-HRP); conditions: for A450: absorbance at 450 nm
[2] = tested on: IgG fraction of the antiserum raised to immunogen C (hapten C-BSA); assay: Competitive ELISA microtiter plate assay, antiserum to immunogen C with conjugate E (hapten E-HRP); conditions: for A450: absorbance at 450 nm
[3] = tested on: IgG fraction of the antiserum raised to Immunogen A (Hapten A-BSA); assay: Competitive ELISA microtiter plate assay, antiserum to immunogen A with conjugate B (hapten B-HRP); conditions: for A450: absorbance at 450 nm
[4] = in man, within 72 hours; cited from earlier work
[5] = standard concentration 0.05 ng/ml
[6] = standard concentration 0.1 ng/ml
[7] = standard concentration 0.5 ng/ml
[8] = standard concentration 25 ng/ml
[9] = standard concentration 250 ng/ml
[10] = standard concentration which produces 50% B/B0

For `CCC(=O)N(c1ccccc1)C1CCN(CCc2ccccc2)CC1`, the “% B/B0” value [1, 5] was 97.09%, the A450 [1, 5] was 1.94 and the “% B/B0” value [1, 6] was 97.54%. The A450 [1, 6] was 1.94, the “% B/B0” value [1, 7] was 85.9% and the A450 [1, 7] was 1.71. The “% B/B0” value ([1]; standard concentration 1 ng/ml) was 73.66%, the A450 ([1]; standard concentration 1 ng/ml) was 1.47 and the “% B/B0” value ([1]; standard concentration 5 ng/ml) was 19.97%. The A450 ([1]; standard concentration 5 ng/ml) was 0.4, the “% B/B0” value [1, 8] was 3.54% and the A450 [1, 8] was 0.07. The “% B/B0” value [1, 9] was 1.43%, the A450 [1, 9] was 0.03 and the IC50 [1, 10] was 2.03 ng/mL (≈ 6.03 nM). The “% B/B0” value [2, 5] was 82.2%, the A450 [2, 5] was 1.9 and the “% B/B0” value [2, 6] was 68.2%. The A450 [2, 6] was 1.6, the “% B/B0” value [2, 7] was 34.4% and the A450 [2, 7] was 0.8. For the same molecule, the “% B/B0” value ([2]; standard concentration 1 ng/ml) was 23.4%, the A450 ([2]; standard concentration 1 ng/ml) was 0.5 and the “% B/B0” value ([2]; standard concentration 5 ng/ml) was 8.4%. The A450 ([2]; standard concentration 5 ng/ml) was 0.2, the “% B/B0” value [2, 8] was 2.8% and the A450 [2, 8] was 0.1. For the same molecule, the “% B/B0” value [2, 9] was 1.0%, the A450 [2, 9] was 0.0 and the IC50 [2, 10] was 0.24 ng/mL (≈ 0.713 nM). The “% B/B0” value [3, 5] was 90.15%, the A450 [3, 5] was 2.07 and the “% B/B0” value [3, 6] was 80.2%. The A450 [3, 6] was 1.84, the “% B/B0” value [3, 7] was 54.91% and the A450 [3, 7] was 1.26. For the same molecule, the “% B/B0” value ([3]; standard concentration 1 ng/ml) was 38.01%, the A450 ([3]; standard concentration 1 ng/ml) was 0.87 and the A450 ([3]; standard concentration 5 ng/ml) was 0.27. For the same molecule, the “% B/B0” value [3, 8] was 3.68%, the A450 [3, 8] was 0.08 and the “% B/B0” value [3, 9] was 3.53%. The A450 [3, 9] was 0.08, the IC50 [3, 10] was 0.61 ng/mL (≈ 1.81 nM) and the “fentanyl dose excreted in urine” value [4] was “approximately 80%”.
